Biological target: T1, Dihydrofolate reductase (Homo sapiens, UniProt P00374)
T1 sequence (P00374 whole entry): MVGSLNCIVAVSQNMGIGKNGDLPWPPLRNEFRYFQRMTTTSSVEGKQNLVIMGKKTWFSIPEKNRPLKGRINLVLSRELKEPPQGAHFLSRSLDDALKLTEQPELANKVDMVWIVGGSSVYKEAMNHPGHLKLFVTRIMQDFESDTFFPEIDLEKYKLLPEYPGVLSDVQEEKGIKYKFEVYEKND
Assay: Ability to inhibit recombinant human dihydrofolate reductase.

Nc1nc(N)c2nc(COC(=O)c3ccc(C(=O)N[C@@H](CCC(=O)O)C(=O)O)cc3)cnc2n1
IC50: 3.1 µM

Source: ChEMBL document CHEMBL1133691 (J Med Chem, 2000)
